Test results taken from ChEMBL document CHEMBL1127358 (J Med Chem, 1994).

Tested on: Muscarinic acetylcholine receptors M2 & M3 (Cavia porcellus)
Assay: Selectivity ratio is the antilog of the difference between the pA2 values at guinea pig left atrium and ileum muscarinic receptors

Ratio: 170
Structure (SMILES): CN(CCCCCCCCN(C)CCCCCCNCC(=O)N1c2ccccc2C(=O)Nc2cccnc21)CCCCCCNCC(=O)N1c2ccccc2C(=O)Nc2cccnc21
